Results taken from patent US20090130086A1.

What was measured:
[1] = molecular target: rFXIII V34L, V35T (human) (UniProt P00488)
rFXIII wt (human) = rFXIII wt (human) (UniProt P00488)
rFXIII V34L (human) = rFXIII V34L (human) (UniProt P00488)

human thrombin (Roche) (from UniProt P00734) (enzyme)
thrombin turnover [1]: 1.56 s⁻¹ | thrombin turnover (rFXIII wt (human)): 0.207 s⁻¹ | thrombin turnover (rFXIII V34L (human)): 0.671 s⁻¹
